These results are taken from ChEMBL document CHEMBL1155506 (J Med Chem, 2010).

The test is filed under the species Homo sapiens. Briefly: Selectivity ratio of Ki for human recombinant 5HT2C receptor to Ki for human recombinant 5HT2C receptor.

As to `Cn1nccc1-c1cc(NC(=O)c2cccc(C(F)(F)F)c2)ccc1OCCN1CCCC1`, the Ratio Ki is 1900.
Turning to `Cn1nccc1-c1cc(NC(=O)c2ccc(C(F)(F)F)cc2)ccc1OCCN1CCCC1`, the Ratio Ki was determined as 118.
